Ab-14 heavy chain CDR variants: yeast mating affinities

Source: Li et al. 2023 (doi:10.1038/s41467-023-39022-2), MIT Lincoln Laboratory and A-Alpha Bio; data file from the FLAb repository.

Antigen: PDVDLGDISGINAS, a 14-residue peptide of the SARS-CoV-2 spike HR2 region.

The variants keep the light chain, the linker and the frameworks of Ab-14 (scFv order VH, the linker GGGGSGGGGSGGGGS, VL).
VH: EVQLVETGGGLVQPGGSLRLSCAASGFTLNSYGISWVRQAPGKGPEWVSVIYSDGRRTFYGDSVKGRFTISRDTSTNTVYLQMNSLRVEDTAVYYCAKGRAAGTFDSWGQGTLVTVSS
VL: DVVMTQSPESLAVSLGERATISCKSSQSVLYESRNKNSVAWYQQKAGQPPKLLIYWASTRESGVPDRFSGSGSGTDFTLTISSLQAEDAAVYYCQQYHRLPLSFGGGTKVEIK

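These sequences belong to a second round, designed from the earlier measurements on random variants of the parent. Several design methods are mixed in this list. In AlphaSeq, yeast of one mating type display the scFv and yeast of the other type display the target. The frequency of each diploid, read from paired DNA barcodes, reflects how well the two displayed proteins bind. Scores were corrected for input abundance and mapped to Kd with protein pairs of known affinity run in the same pool. Each pool was mated in six replicate cultures.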

Variants are written as CDR1, CDR2 and CDR3 of the heavy chain (limits as in the source). Parent: GFTLNSYGIS, VIYSDGRRTFYGDSVK, GRAAGTFDS.
Variants here have more than six changes.
Kd is apparent (estimated from mating counts) and averaged on the log scale over replicates with a signal. Smaller is tighter.
"no signal" marks a missing value. The strain was present, yet no cells mated with the target were sequenced in any replicate, which points to weak or no binding.
Order: sorted from the lowest average up, undetected variants last.
Values of this round are not directly comparable with the first-round values of the same sequences.

CDR-H1,CDR-H2,CDR-H3,apparent Kd,replicates with signal
GFDLDEYGIS,VIYADGMRTAYSDSVK,GQVAGTFDV,78 pM,6 of 6
GFDINEYGIS,VIYADGRRTAYADSVK,GEVAGTFDS,120 pM,6 of 6
GFDLDEYGIS,VIYADGMRTVYADSVK,GSNAGTFDV,140 pM,6 of 6
GFNLNEYGIS,VIYADGQRTFYADSVK,GQVAGTFDV,170 pM,6 of 6
GFSLDEYGIS,VIYADGRRTFYQDDVK,GNVAGTFDQ,210 pM,6 of 6
GFDLDEYGIS,VIYADGRRTFYQDSVK,GNVAGTFDQ,240 pM,6 of 6
GFDLNEYGIS,VIYADGKRTAYVDSVK,GEVAGTFDV,270 pM,6 of 6
GFDLNEYGIS,VIYADGRRTFYSDSVK,GSTAGTFDV,270 pM,6 of 6
GFDLNEYGIS,VIYADGRRTFYSDSVK,GQLAGTFDE,280 pM,6 of 6
GFDLNEYGIS,VIYADGVRTYYADDVK,GENAGTFDI,290 pM,6 of 6
GFDLNEYGIS,VIYADGRRTAYDDSVK,GQVAGTFDF,290 pM,6 of 6
GFDLNEYGIS,VIYADGVRTAYADSVK,GQVAGTFDS,330 pM,6 of 6
GFDLDEYGIS,VIYADGKRTFYADDVK,GNVAGTFDV,340 pM,6 of 6
GFNLNEYGIS,VIYADGRRTFYADNVK,GNVAGTFDQ,370 pM,6 of 6
GFDLNEYGIS,VIYADGMRTAYADNVK,GHVAGTFDV,380 pM,6 of 6
GFDLEEYGIS,VIYADGRRTFYSDSVK,GEAAGTFDA,390 pM,6 of 6
GFDLDEYGIS,VIYADGRRTAYADSVK,GENAGTFDL,390 pM,6 of 6
GFDLNEYGIS,VIYADGARTFYADSVK,GNLAGTFDQ,400 pM,6 of 6
GFDLNEYGIS,VIYADGMRTQYIDSVK,GEAAGTFDL,400 pM,6 of 6
GFDLNEYGIS,VIYADGQRTAYADSVK,GEVAGTFDS,410 pM,6 of 6
GFDLNEYGIS,VIYADGRRTFYIDSVK,GEIAGTFTV,430 pM,6 of 6
GFDLNEYGIS,VIYADGRRTGYIDSVK,GENAGTFDV,480 pM,6 of 6
GFDLNEYGIS,VIYADGRRTFYSDSVK,GQIAGTFDV,490 pM,6 of 6
GFDLNEYGIS,VIYADGMRTFYTDSVK,GENAGTFDS,490 pM,6 of 6
GFDLNEYGIS,VIYADGKRTAYADDVK,GNNAGTFDT,510 pM,6 of 6
GFDLNEYGIS,VIYADGRRSAYADSVK,GNVAGTFDV,590 pM,6 of 6
GFNLDEYGIS,VIYADGRRTFYQDSVK,GEVAGTFDE,590 pM,6 of 6
GFDLNEYGIS,VIYADGKRTQYIDSVK,GNEAGTFDS,590 pM,6 of 6
GFDLNEYGIS,VIYADGMRTAYADSVK,GNSAGTFDV,600 pM,6 of 6
GFNLDEYGIS,VIYADGKRTFYADSVK,GQIAGTFIV,610 pM,6 of 6
GFDLNEYGIS,VIYADGRRTAYADSVK,GGNAGTFDQ,720 pM,6 of 6
GFDLNEYGIS,VIYADGLRTSYDDSVK,GQLAGTFDV,720 pM,6 of 6
GFGLMEYGIS,VIYADGMRTSYSNSVK,GALAGTFDE,740 pM,6 of 6
GFDLNEYGIS,VIYADGVRTAYSDSVK,GNNAGTFDV,860 pM,6 of 6
GFDLNEYGIS,VIYADGMRTAYSDSVK,GDNAGTFDI,860 pM,6 of 6
GFQLDEYGIS,VIYADGQRTFYQDSVK,GEVAGTFDS,1.0 nM,6 of 6
GFDLNEYGIS,VIYADGQRTFYADSVK,GNVAGTFDK,1.2 nM,6 of 6
GFDLDEYGIS,VIYADGMRTFYTDSVK,GEVAGTFDA,1.2 nM,6 of 6
GFDLDEYGIS,VIYADGRRTAYADSVK,GSNAGTFDI,1.3 nM,6 of 6
GFDLEEYGIS,VIYADGIRQYAQDNVK,GLLSGMGIT,2.9 nM,6 of 6
GFNIEEYGIS,VIYADGRRTAYAEPVK,GESGGTIDT,7.2 nM,6 of 6
GFDLNEYGIS,VIYADGMRTAYSDSVK,GENAGTFVI,13 nM,2 of 6
GYDLDDYGIS,VIYADGKRTSYAENVK,GLIGGSLSN,19 nM,5 of 6
GFDLNEYGIS,VIYADGRRTFYKDSVK,GEAGGTFDV,58 nM,1 of 6
GIDLQEYGVS,VIYADGMRQSYADSVK,GQHAGYLDK,280 nM,1 of 6
GADLVEYGIS,VIYADGQRTVYADTVK,GHHGGIFDM,1.0 µM,2 of 6
GEDLDEYGVS,VIYADGIRSTYADAVK,GKHGGAFFV,2.4 µM,1 of 6
GFDLGEYGVS,VIYADGTRAQYADKVK,GNISYNFTV,no signal,0 of 6
GMNIDEYGIS,VIYADGMRTAYSNAVK,GAVFGDTIS,no signal,0 of 6
GFDLDEYGIS,VIYADGRRTFYTDSVK,GQAAGTFDQ,no signal,0 of 6
GFDIEEYGIS,VIYADGIRQAYKDSVK,GMNVGRFSV,no signal,0 of 6
GFDLDEYGIS,VIYADGMRTAYTDSVK,GNQAGTFDI,no signal,0 of 6
GFDLSEYGIS,VIYADGRRAYYTDAVK,GEVEGMLMV,no signal,0 of 6
GFDLAEYGVS,VIYADGKRTAYSDHVK,GENGGFFDL,no signal,0 of 6
GDDLEDYGIS,VIYADGRRTAYQESVK,GLYAGAIDV,no signal,0 of 6
GFDLDEQGIS,VIYADGQRTAYADQVK,GMIGDGFRT,no signal,0 of 6
GFVFDEYGIS,VIYADGKRQFYQDKVK,GENTGNFDT,no signal,0 of 6
GFDFDEYGIS,VIYADGIRQFYQDKVK,GNVTGMFDT,no signal,0 of 6

Excerpt, the final 7 entries:

CDR-H1,CDR-H2,CDR-H3,apparent Kd,replicates with signal
GFDLDEYGIS,VIYADGMRTAYTDSVK,GNQAGTFDI,no signal,0 of 6
GFDLSEYGIS,VIYADGRRAYYTDAVK,GEVEGMLMV,no signal,0 of 6
GFDLAEYGVS,VIYADGKRTAYSDHVK,GENGGFFDL,no signal,0 of 6
GDDLEDYGIS,VIYADGRRTAYQESVK,GLYAGAIDV,no signal,0 of 6
GFDLDEQGIS,VIYADGQRTAYADQVK,GMIGDGFRT,no signal,0 of 6
GFVFDEYGIS,VIYADGKRQFYQDKVK,GENTGNFDT,no signal,0 of 6
GFDFDEYGIS,VIYADGIRQFYQDKVK,GNVTGMFDT,no signal,0 of 6

Background: pairings of all heavy chain designs with three empty control strains gave a value in 1% of cases (median 120 nM, 5th percentile 7.0 nM). Values in that range, when seen in few replicates, are hard to tell from nonspecific mating.
The authors averaged sequences with at least three values out of six and counted those with two or fewer as poor binders.
The parent sequence was in this pool as ten entries: three were never detected, three once, and four in most replicates, with averages from 2.2 nM to 240 nM.